What was measured:
hSARM1 full length = target: T1, hSARM1 full length (Homo sapiens, UniProt Q6SZW1); assay: NAD(P)ase activity by HPLC (kinetics, substrates, metal ions); assay type: biochemical
T1 construct: Human recombinant SARM1 full length proteins (wild-type and E642A mutant); made in house; host or cells: HEK 293T cells
T1 sequence (Q6SZW1 28-724): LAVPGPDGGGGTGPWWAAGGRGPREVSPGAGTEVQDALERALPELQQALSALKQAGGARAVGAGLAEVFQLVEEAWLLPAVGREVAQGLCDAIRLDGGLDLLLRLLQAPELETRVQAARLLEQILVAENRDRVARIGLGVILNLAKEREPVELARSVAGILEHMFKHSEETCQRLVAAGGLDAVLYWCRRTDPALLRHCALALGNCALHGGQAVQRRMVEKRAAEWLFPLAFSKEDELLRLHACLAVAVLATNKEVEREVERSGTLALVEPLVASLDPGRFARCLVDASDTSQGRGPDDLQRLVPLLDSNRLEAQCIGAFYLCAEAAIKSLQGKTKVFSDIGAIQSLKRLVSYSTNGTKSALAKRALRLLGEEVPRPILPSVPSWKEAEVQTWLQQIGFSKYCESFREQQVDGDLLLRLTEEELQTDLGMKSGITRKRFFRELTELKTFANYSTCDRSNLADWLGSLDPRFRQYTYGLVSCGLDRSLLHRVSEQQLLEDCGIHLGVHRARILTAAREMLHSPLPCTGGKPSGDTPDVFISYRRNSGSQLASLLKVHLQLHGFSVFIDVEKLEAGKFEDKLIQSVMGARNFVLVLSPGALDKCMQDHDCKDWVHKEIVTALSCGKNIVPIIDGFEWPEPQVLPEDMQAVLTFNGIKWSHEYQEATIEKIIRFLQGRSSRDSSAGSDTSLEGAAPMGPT
Method: (§1) hSARM1 species were routinely assayed by the NAD/NADH-Glo^TM Assay (Promega) while both Aplysia cyclase and CD38 were assayed by fluorometry using ϵNAD ([Orsomando et al., 2000]). […] Other reagents used in addition to, or in place of those above are detailed in text or in figure legends, for example metal ions, free bases, dinucleotide analogues, mononucleotides, and ribosides. Assays were all carried out at 25°C except for temperature studies. Reactions were stopped by HClO4/K2CO3 and analysed by C18-HPLC as reported ([Mori et al., 2014]). Only the acid labile NADH and NADPH were treated with 1 N NaOH and neutralized using 1:1 vol of 1.73 M KH2CO3 while the highly hydrophobic metabolites vacor, VAD, VMN and VR, were analysed by a modified C18-HPLC method ([Buonvicino et al., 2018]). Reaction products were quantified from peak areas (see Figure 2A) based on coelution with standards (except for cyclic products from NAD analogues that were not available and were attributed based on UV-spectra and retention times as predicted). Rates were calculated as follows. Hydrolysis and cyclization were measured from product generation from the respective individual dinucleotide substrate used, e.g., free and cyclic ADP-ribosyl moieties from NAD (Figure 1B). A basal value for hydrolysis/cyclization was taken as sum of these latter two products. In addition to that value, base exchange or transglycosidation was calculated from the expected dinucleotide analog formed in the presence of the corresponding free base, e.g., AcPyrAD from AcPyr and NAD.
(§2) The kinetic parameters were calculated from initial rates obtained from replicates via best-fitting analysis using the following Equation 1 for CD38 and Aplysia cyclase, or Equation 2 for hSARM1 SAM-TIR, or Equation 3 for hSARM1 full length(Equation 1) V =Vmax[S]/Km+[S] […] In that case, the resulting single curves were fit to Equation 3 as above to evaluate any competition between NMN and the substrate used (see Table 1).

hSARM1 SAM-TIR = target: T2, hSARM1 SAM-TIR (Homo sapiens, UniProt Q6SZW1); assay type: biochemical
T2 construct: wild type SAM-TIR fragment Val409-Thr724 were expressed in HEK 293T cells; made in house; host or cells: HEK 293T cells
T2 sequence (Q6SZW1 409-724): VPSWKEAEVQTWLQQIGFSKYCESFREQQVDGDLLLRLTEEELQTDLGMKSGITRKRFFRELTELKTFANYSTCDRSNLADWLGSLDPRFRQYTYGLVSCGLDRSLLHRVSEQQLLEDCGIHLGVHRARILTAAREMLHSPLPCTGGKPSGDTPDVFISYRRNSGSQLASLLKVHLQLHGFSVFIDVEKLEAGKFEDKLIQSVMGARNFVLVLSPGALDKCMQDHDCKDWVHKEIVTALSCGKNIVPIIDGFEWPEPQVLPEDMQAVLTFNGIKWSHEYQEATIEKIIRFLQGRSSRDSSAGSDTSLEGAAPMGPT
Method: as §1, §2

[1] = hSARM1 full length +NMN 5μM, n=1
[2] = hSARM1 full length +NMN 10μM, n=1
[3] = hSARM1 full length +NMN 20μM, n=1
[4] = hSARM1 full length +NMN 50μM, n=1

nicotinamide adenine dinucleotide phosphate [NADP]
Km (hSARM1 full length; [1]): 29.3 µM | Vmax (hSARM1 full length; [1]): 15.7 mU/mg | Km (hSARM1 full length; [2]): 45.9 µM | Vmax (hSARM1 full length; [2]): 29.9 mU/mg | Km (hSARM1 full length; [3]): 45 µM | Vmax (hSARM1 full length; [3]): 52.2 mU/mg | Km (hSARM1 full length; [4]): 91.7 µM | Vmax (hSARM1 full length; [4]): 98.1 mU/mg | Km (hSARM1 full length; hSARM1 full length, no NMN): 66.9 ± 32.6 µM | Vmax (hSARM1 full length; hSARM1 full length, no NMN): 14.3 ± 3.14 mU/mg | Kcat (hSARM1 full length; hSARM1 full length, re-elaborated from Table 1): 0.019 ± 0.004 s⁻¹ | Km (hSARM1 SAM-TIR): 83.5 ± 11.9 µM | Vmax (hSARM1 SAM-TIR): 582 ± 46.9 mU/mg | Kcat (hSARM1 SAM-TIR; re-elaborated from Table 1): 0.361 ± 0.029 s⁻¹

Reference: paper PMC8844822, “SARM1 is a multi-functional NAD(P)ase with prominent base exchange activity, all regulated bymultiple physiologically relevant NAD metabolites” (iScience, 2022)
